Test results as given in ChEMBL document CHEMBL3046404, “The cytotoxic effects of diketopiperaizes against Leishmania donovani promastigotes and amastigotes” (Med Chem Res, 2013).

tested on: Leishmania donovani; assay: Antileishmanial activity against amastigote form of Leishmania donovani MHOH/IN/1983/AG83 infected BALB/c mouse peritoneal macrophages after 48 hr by Geimsa staining method; format: functional, organism-based

Compound	Activity
O=C1CN(C2CCCCC2)C(=O)CN1C1CCCCC1	Dose-dependent effect
O=C1CN(c2cccc(Cl)c2)C(=O)CN1c1cccc(Cl)c1	Dose-dependent effect
O=C1CN(c2ccccc2Cl)C(=O)CN1c1ccccc1Cl	Dose-dependent effect
